# Results from paper doi:10.64898/2025.12.15.694443v1 (biorxiv, 2025).
# The chains behind the UniProt entries cited, without tags or fusion partners. Residues count along the entry.
# UniProt P10398, 274-606 G300S/Y301D/Y302D: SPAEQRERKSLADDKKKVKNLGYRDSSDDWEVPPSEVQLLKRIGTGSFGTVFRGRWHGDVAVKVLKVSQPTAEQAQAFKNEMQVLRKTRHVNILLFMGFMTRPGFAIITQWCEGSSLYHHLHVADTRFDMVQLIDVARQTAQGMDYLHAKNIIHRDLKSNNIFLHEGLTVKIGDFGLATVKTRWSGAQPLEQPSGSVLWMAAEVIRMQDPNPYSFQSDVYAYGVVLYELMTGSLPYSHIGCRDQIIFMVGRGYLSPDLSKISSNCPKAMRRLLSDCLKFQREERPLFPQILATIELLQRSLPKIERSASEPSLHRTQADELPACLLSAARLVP
# UniProt P10398, 282-579: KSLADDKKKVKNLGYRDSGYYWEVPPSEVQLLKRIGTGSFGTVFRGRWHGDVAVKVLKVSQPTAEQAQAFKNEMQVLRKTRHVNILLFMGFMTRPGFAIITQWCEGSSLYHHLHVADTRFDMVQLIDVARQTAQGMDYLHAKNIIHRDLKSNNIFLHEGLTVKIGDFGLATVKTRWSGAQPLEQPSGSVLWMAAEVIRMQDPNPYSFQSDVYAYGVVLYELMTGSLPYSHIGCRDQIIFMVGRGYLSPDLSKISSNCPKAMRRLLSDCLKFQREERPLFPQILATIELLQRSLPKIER
# What was measured:
# Experiment in all cases: biochemical
# [1] = biological target: T1, ARAF^SSDD (ARAF^SSDD/MEK1) (Homo sapiens, UniProt P10398, G300S/Y301D/Y302D)
# [2] = biological target: T2, ARAF monomer complex (ARAF/MEK1 SASA) (Homo sapiens, UniProt P10398)
# [3] = biological target: T1, ARAF^SSDD (ARAF^SSDD/MEK1); remark: listed apart in the source
# [4] = biological target: T2, ARAF monomer complex (ARAF/MEK1 SASA); remark: listed apart in the source
smiles,measurement,setting,value
OCCn1cc(-c2ccc3c(c2)CC/C3=N\O)c(-c2ccncc2)n1 [GDC0879],AC50,[1],129 ± 90.3 nM
same,AC50,[2],286 ± 168 nM
same,IC50,[3],> 10000 nM
same,IC50,[4],> 10000 nM
